Test results as given in patent US8927500B2, “Peptidomimetic macrocycles” (Aileron Therapeutics, Inc., priority 2012, dated 2015).

Chains of the proteins cited; added tags and fusions are not shown. Residues count along the entry.
UniProt Q00987, 1-125: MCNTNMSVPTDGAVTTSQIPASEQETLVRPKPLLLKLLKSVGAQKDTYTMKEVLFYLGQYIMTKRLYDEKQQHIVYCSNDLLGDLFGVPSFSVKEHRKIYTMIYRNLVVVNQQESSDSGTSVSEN

What was measured:
MDMX = target: T1, MDMX (Homo sapiens, UniProt O15151); assay: Competitive fluorescence polarization assay for MDMX; assay type: binding; details: competitive FP assay; for IC50: read-out: IC50 (MDMX); for Ki: read-out: Ki (MDMX)
T1 sequence (O15151 1-125): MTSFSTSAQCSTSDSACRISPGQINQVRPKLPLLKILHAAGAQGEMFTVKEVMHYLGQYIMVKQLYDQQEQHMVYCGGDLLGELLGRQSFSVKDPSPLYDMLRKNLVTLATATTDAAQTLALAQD

MDM2 = MDM2 (Homo sapiens, UniProt Q00987); assay: Competitive fluorescence polarization assay for MDM2; assay type: binding; details: competitive FP assay
SJSA-1 cells = assay: Cell viability assay (MTT), SJSA-1; details: read-out: SJSA-1 EC50 (72 h)
RKO cells = assay: Cell viability assay (MTT), RKO; details: read-out: RKO EC50 (72 h)

Row | Compound | IC50 (MDMX) [µM] | Ki (MDMX) [µM] | IC50 (MDM2) [µM] | Ki (MDM2) [µM] | EC50 (SJSA-1 cells) [µM] | EC50 (RKO cells) [µM]
1 | CCCC[C@H](NC(=O)[C@H](CCC(N)=O)NC(=O)[C@H](Cc1c[nH]cn1)NC(=O)[C@]1(C)CCCC=CCCCCCC[C@@](C)(NC(=O)[C@H](Cc2ccccc2)NC(=O)[C@@H](NC(=O)[C@H](CC(C)C)NC(C)=O)[C@@H](C)O)C(=O)N[C@@H](C)C(=O)N[C@@H](Cc2ccc(O)cc2)C(=O)N[C@@H](Cc2c[nH]c3ccccc23)C(=O)N[C@@H](C)C(=O)N[C@@H](CCC(N)=O)C(=O)N[C@@H](CC(C)C)C(=O)N1)C(=O)N[C@@H](C(N)=O)C(C)C (single isomer, unassigned) [compound 46] | 0.01 to 0.1 | 0.01 to 0.1 | 0.01 to 0.1 | < 0.01 |  | 
2 | CSCC[C@H](NC(=O)[C@H](CCC(N)=O)NC(=O)[C@H](CCC(N)=O)NC(=O)[C@]1(C)CCCC=CCCCCCC[C@@](C)(NC(=O)[C@H](Cc2ccccc2)NC(=O)[C@@H](NC(=O)[C@H](CC(C)C)NC(C)=O)[C@@H](C)O)C(=O)N[C@@H](C)C(=O)N[C@@H](Cc2ccc(O)cc2)C(=O)N[C@@H](Cc2c[nH]c3ccccc23)C(=O)N[C@@H](C)C(=O)N[C@@H](CCC(N)=O)C(=O)N[C@@H](CC(C)C)C(=O)N1)C(=O)N[C@H](CC(C)C)C(N)=O (single isomer, unassigned) [compound 47] | 0.1 to 1 | 0.01 to 0.1 | 0.1 to 1 | 0.01 to 0.1 |  | 
3 | CCCC[C@H](NC(=O)[C@H](C)NC(=O)[C@H](C)NC(=O)[C@]1(C)CCCC=CCCCCCC[C@@](C)(NC(=O)[C@H](Cc2ccccc2)NC(=O)[C@@H](NC(=O)[C@H](CC(C)C)NC(C)=O)[C@@H](C)O)C(=O)N[C@@H](C)C(=O)N[C@@H](Cc2ccc(O)cc2)C(=O)N[C@@H](Cc2c[nH]c3ccccc23)C(=O)N[C@@H](C)C(=O)N[C@@H](CCC(N)=O)C(=O)N[C@@H](CC(C)C)C(=O)N1)C(=O)N[C@@H](C)C(N)=O (single isomer, unassigned) [compound 68] |  |  |  |  | < 5 | 
4 | CC[C@H](C)[C@H](NC(=O)[C@H](C)NC(=O)[C@H](C)NC(=O)[C@]1(C)CCCC=CCCCCCC[C@@](C)(NC(=O)[C@H](Cc2ccccc2)NC(=O)[C@@H](NC(=O)[C@H](CC(C)C)NC(C)=O)[C@@H](C)O)C(=O)N[C@@H](C)C(=O)N[C@@H](Cc2ccc(O)cc2)C(=O)N[C@@H](Cc2c[nH]c3ccccc23)C(=O)N[C@@H](C)C(=O)N[C@@H](CCC(N)=O)C(=O)N[C@@H](CC(C)C)C(=O)N1)C(=O)N[C@H](CC(C)C)C(N)=O (single isomer, unassigned) [compound 81] | 0.1 to 1 | 0.01 to 0.1 | 0.1 to 1 | 0.01 to 0.1 |  | 5 to 15
5 | CC[C@H](C)[C@H](NC(=O)[C@H](C)NC(=O)[C@H](C)NC(=O)[C@]1(C)CCCC=CCCCCCC[C@@](C)(NC(=O)[C@H](Cc2ccccc2)NC(=O)[C@@H](NC(=O)[C@H](CC(C)C)NC(C)=O)[C@@H](C)O)C(=O)N[C@@H](C)C(=O)N[C@@H](Cc2ccc(O)cc2)C(=O)N[C@@H](Cc2c[nH]c3ccccc23)C(=O)N[C@@H](C)C(=O)N[C@@H](CCC(N)=O)C(=O)N[C@@H](CC(C)C)C(=O)N1)C(=O)N[C@H](CC(C)C)C(N)=O (single isomer, unassigned) [compound 82] | 0.1 to 1 | 0.01 to 0.1 | 0.1 to 1 | 0.01 to 0.1 |  | 
6 | CC(=O)N[C@@H](Cc1c[nH]c2ccccc12)C(=O)N[C@H](C(=O)N[C@@H](Cc1ccccc1)C(=O)N[C@]1(C)CCCCCCC=CCCC[C@@](C)(C(=O)N[C@@H](C)C(=O)N[C@H](C(=O)N[C@@H](C)C(=O)N[C@H](C)C(N)=O)C(C)C)NC(=O)[C@H](CC(C)C)NC(=O)[C@H](CCC(N)=O)NC(=O)[C@H](CO)NC(=O)[C@H](Cc2c[nH]c3ccccc23)NC(=O)[C@H](Cc2ccc(O)cc2)NC(=O)[C@H](Cc2ccccc2)NC1=O)[C@@H](C)O (single isomer, unassigned) [compound 100] | 0.1 to 1 | 0.01 to 0.1 | 0.1 to 1 | < 0.01 |  | 
7 | CC(=O)N[C@@H](Cc1c[nH]c2ccccc12)C(=O)N[C@H](C(=O)N[C@@H](Cc1ccccc1)C(=O)N[C@]1(C)CCCCCCC=CCCC[C@@](C)(C(=O)N[C@@H](C)C(=O)N[C@H](C(=O)N[C@@H](C)C(=O)N[C@H](C)C(N)=O)C(C)C)NC(=O)[C@H](CC(C)C)NC(=O)[C@H](CCC(N)=O)NC(=O)[C@H](CO)NC(=O)[C@H](Cc2c[nH]c3ccccc23)NC(=O)[C@H](Cc2ccc(O)cc2)NC(=O)[C@H](Cc2ccccc2)NC1=O)[C@@H](C)O (single isomer, unassigned) [compound 101] | 0.1 to 1 | 0.01 to 0.1 | 0.01 to 0.1 | < 0.01 |  | 
8 | CC(=O)N[C@@H](Cc1c[nH]c2ccccc12)C(=O)N[C@H](C(=O)N[C@@H](Cc1ccccc1)C(=O)N[C@]1(C)CCCCCCC=CCCC[C@@](C)(C(=O)N[C@@H](C)C(=O)N[C@H](C(=O)N[C@@H](C)C(N)=O)C(C)C)NC(=O)[C@H](CC(C)C)NC(=O)[C@H](CCC(N)=O)NC(=O)[C@H](CO)NC(=O)[C@H](Cc2c[nH]c3ccccc23)NC(=O)[C@H](Cc2ccc(O)cc2)NC(=O)[C@H](C(C)C)NC1=O)[C@@H](C)O (single isomer, unassigned) [compound 102] | 0.1 to 1 | 0.01 to 0.1 | 0.1 to 1 | < 0.01 |  | 
9 | CC(=O)N[C@@H](Cc1c[nH]c2ccccc12)C(=O)N[C@H](C(=O)N[C@@H](Cc1ccccc1)C(=O)N[C@]1(C)CCCCCCC=CCCC[C@@](C)(C(=O)N[C@@H](CO)C(=O)N[C@@H](C)C(=O)N[C@@H](C)C(=O)N[C@H](C)C(N)=O)NC(=O)[C@H](CC(C)C)NC(=O)[C@H](CCC(N)=O)NC(=O)[C@H](CO)NC(=O)[C@H](Cc2c[nH]c3ccccc23)NC(=O)[C@H](Cc2ccc(O)cc2)NC(=O)[C@H](Cc2ccccc2)NC1=O)[C@@H](C)O (single isomer, unassigned) [compound 104] | 0.1 to 1 | 0.01 to 0.1 | 0.01 to 0.1 | < 0.01 |  | 
10 | CC(=O)N[C@@H](Cc1c[nH]c2ccccc12)C(=O)N[C@H](C(=O)N[C@@H](Cc1ccccc1)C(=O)N[C@]1(C)CCCCCCC=CCCC[C@@](C)(C(=O)N[C@@H](C)C(=O)N[C@H](C(=O)N[C@@H](C)C(=O)N[C@H](C)C(=O)N[C@H](C)C(N)=O)C(C)C)NC(=O)[C@H](CC(C)C)NC(=O)[C@H](CCC(N)=O)NC(=O)[C@H](CO)NC(=O)[C@H](Cc2c[nH]c3ccccc23)NC(=O)[C@H](Cc2ccc(O)cc2)NC(=O)[C@H](C(C)C)NC1=O)[C@@H](C)O (single isomer, unassigned) [compound 106] | 0.1 to 1 | 0.01 to 0.1 | 0.1 to 1 | 0.01 to 0.1 |  | 
11 | CC(=O)N[C@@H](CC(C)C)C(=O)N[C@H](C(=O)N[C@@H](Cc1ccccc1)C(=O)N[C@]1(C)CCCCCCC=CCCC[C@@](C)(C(=O)N[C@@H](C)C(=O)N[C@H](C(=O)NCC(N)=O)C(C)C)NC(=O)[C@H](CC(C)C)NC(=O)[C@H](CCC(N)=O)NC(=O)[C@H](C)NC(=O)[C@H](Cc2c[nH]c3ccccc23)NC(=O)[C@H](Cc2ccc(O)cc2)NC(=O)[C@H](C)NC1=O)[C@@H](C)O (single isomer, unassigned) [compound 108] | 0.1 to 1 | 0.01 to 0.1 | 0.01 to 0.1 | < 0.01 |  | 
12 | CC(=O)N[C@@H](CC(C)C)C(=O)N[C@H](C(=O)N[C@@H](Cc1ccccc1)C(=O)N[C@]1(C)CCCCCCC=CCCC[C@@](C)(C(=O)N[C@@H](C)C(=O)N[C@H](C(=O)N[C@@H](CCC(N)=O)C(N)=O)C(C)C)NC(=O)[C@H](CC(C)C)NC(=O)[C@H](CCC(N)=O)NC(=O)[C@H](C)NC(=O)[C@H](Cc2c[nH]c3ccccc23)NC(=O)[C@H](Cc2ccc(O)cc2)NC(=O)[C@H](C)NC1=O)[C@@H](C)O (single isomer, unassigned) [compound 110] | 0.1 to 1 | 0.01 to 0.1 | 0.1 to 1 | < 0.01 |  | 
13 | CC(=O)N[C@@H](CC(C)C)C(=O)N[C@H](C(=O)N[C@@H](Cc1ccccc1)C(=O)N[C@]1(C)CCCCCCC=CCCC[C@@](C)(C(=O)N[C@@H](C)C(=O)N[C@H](C(=O)N[C@@H](CCC(N)=O)C(N)=O)C(C)C)NC(=O)[C@H](CC(C)C)NC(=O)[C@H](CCC(N)=O)NC(=O)[C@H](C)NC(=O)[C@H](Cc2c[nH]c3ccccc23)NC(=O)[C@H](Cc2ccc(O)cc2)NC(=O)[C@H](C)NC1=O)[C@@H](C)O (single isomer, unassigned) [compound 111] | 0.1 to 1 | 0.01 to 0.1 | 0.1 to 1 | < 0.01 |  | 
14 | CC(=O)N[C@@H](CC(C)C)C(=O)N[C@H](C(=O)N[C@@H](Cc1ccccc1)C(=O)N[C@]1(C)CCCCCCC=CCCC[C@@](C)(C(=O)N[C@@H](CO)C(=O)N[C@@H](C)C(=O)N[C@H](C)C(N)=O)NC(=O)[C@H](CC(C)C)NC(=O)[C@H](CCC(N)=O)NC(=O)[C@H](C)NC(=O)[C@H](Cc2c[nH]c3ccccc23)NC(=O)[C@H](Cc2ccc(O)cc2)NC(=O)[C@H](C)NC1=O)[C@@H](C)O (single isomer, unassigned) [compound 112] | 0.1 to 1 | 0.01 to 0.1 | 0.1 to 1 | 0.01 to 0.1 |  | 
15 | CC(=O)N[C@@H](CC(C)C)C(=O)N[C@H](C(=O)N[C@@H](Cc1ccccc1)C(=O)N[C@]1(C)CCCCCCC=CCCC[C@@](C)(C(=O)N[C@@H](CO)C(=O)N[C@@H](C)C(=O)N[C@@H](C)C(N)=O)NC(=O)[C@H](CC(C)C)NC(=O)[C@H](CCC(N)=O)NC(=O)[C@H](C)NC(=O)[C@H](Cc2c[nH]c3ccccc23)NC(=O)[C@H](Cc2ccc(O)cc2)NC(=O)[C@H](C)NC1=O)[C@@H](C)O [compound 11] | 0.1 to 1 | 0.01 to 0.1 | 0.01 to 0.1 | < 0.01 |  | < 5
